Consider one compound from ChEMBL document CHEMBL5236596, “Discovery and Optimization of N-Acyl-6-sulfonamide-tetrahydroquinoline Derivatives as Novel Non-Steroidal Selective Glucocorticoid Receptor Modulators” (J Med Chem, 2022).

This experiment concerns the target T1, Mineralocorticoid receptor (Homo sapiens) (UniProt P08235).
T1 sequence (whole entry): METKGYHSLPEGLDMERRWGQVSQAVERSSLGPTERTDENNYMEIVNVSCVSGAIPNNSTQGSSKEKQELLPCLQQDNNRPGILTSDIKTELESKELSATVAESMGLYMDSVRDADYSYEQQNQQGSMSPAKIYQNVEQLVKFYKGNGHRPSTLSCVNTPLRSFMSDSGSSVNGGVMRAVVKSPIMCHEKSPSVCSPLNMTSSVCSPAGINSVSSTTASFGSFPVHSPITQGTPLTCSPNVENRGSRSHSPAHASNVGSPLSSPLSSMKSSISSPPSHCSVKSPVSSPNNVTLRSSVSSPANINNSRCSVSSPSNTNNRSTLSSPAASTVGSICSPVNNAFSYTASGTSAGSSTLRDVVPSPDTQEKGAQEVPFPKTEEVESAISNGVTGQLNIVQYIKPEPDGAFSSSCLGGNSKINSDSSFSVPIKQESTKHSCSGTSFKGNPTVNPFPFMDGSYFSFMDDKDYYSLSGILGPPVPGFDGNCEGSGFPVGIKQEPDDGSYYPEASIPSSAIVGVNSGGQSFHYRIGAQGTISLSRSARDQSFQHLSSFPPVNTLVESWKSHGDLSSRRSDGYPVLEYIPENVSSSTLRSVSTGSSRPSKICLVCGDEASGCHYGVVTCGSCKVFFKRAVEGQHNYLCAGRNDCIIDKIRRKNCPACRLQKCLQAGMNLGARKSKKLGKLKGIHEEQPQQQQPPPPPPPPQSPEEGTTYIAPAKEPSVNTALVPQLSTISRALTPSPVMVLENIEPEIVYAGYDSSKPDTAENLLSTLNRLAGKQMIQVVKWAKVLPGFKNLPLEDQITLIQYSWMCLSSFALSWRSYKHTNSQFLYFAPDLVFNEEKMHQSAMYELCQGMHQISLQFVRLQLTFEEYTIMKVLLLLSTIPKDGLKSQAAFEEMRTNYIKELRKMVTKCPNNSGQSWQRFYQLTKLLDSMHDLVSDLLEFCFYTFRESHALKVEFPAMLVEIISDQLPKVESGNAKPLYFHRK
The experiment is described as follows: Activation of human mineralocorticoid receptor transfected in HEK293T cells at 10 nM incubated for 16 hrs by luciferase based analysis. In kind it is cell-based. The note with it: filed as activator.

SMILES strings stand for the structures. The source made the active and inactive calls. The calls are words filed in the database; no cut-off is given here.

With `C[C@]12CCC(=O)C=C1CC[C@@H]1[C@@H]2[C@@H](O)C[C@]2(C=O)[C@@H](C(=O)CO)CC[C@@H]12`, the outcome was Active.
